Data reported in PMC7330163 (Pharmacology Research & Perspectives, 2020).

Experiment: Single-dose oral pharmacokinetics in dog
Assay type: in vivo
Conditions: male, Beagle, plasma, 1 mg/kg

With CCCNS(=O)(=O)Nc1ncnc(OCCOc2ncc(Br)cn2)c1-c1ccc(Br)cc1 [macitentan] the bioavailability was 74%.
